Literature values, collected in paper PMC10215749, “Determination of the affinity constants for phage display albumin-binding peptides” (PeerJ, 2023).

Conditions: ref Varshney et al. (2010); Dennis et al., 2002; Larsen et al., 2016; Cho et al., 2022; cited from earlier work
Text: Human serum albumin (HSA) is a 67 KDa globular protein with a concentration of 3.4 to 5.4 g/dL in blood, accounting for about 60% of the total protein in blood serum. Its long half-life, 19∼20 days, makes HSA an ideal carrier to extend the half-lives of therapeutic proteins ([Varshney et al., 2010]; [Dennis et al., 2002]; [Larsen et al., 2016]; [Cho et al., 2022]). Both HSA fusion and HSA binding technologies have been developed to reduce the clearance rate of peptide and protein drugs. HSA fusion technologies, e.g. granulocyte colony-stimulating factor-HSA (Albugranin) ([Halpern et al., 2002] ...

Substance: HSA: 67 KDa globular protein
- half-life: 19∼20 days
